Numbers after ± are expanded uncertainties.
Test: xn = mol fraction of the nth substance listed
Conditions: 101 kPa, Liquid, Vibrating tube method

SMILES: CCC[N+](CCC)(CCC)CCC.[Br-] [tetrapropylammonium bromide] + O
- mass density (278.15 K, x1 = 0.0009007): 1001.46 ± 0.34 kg/m3
- mass density (278.15 K, x1 = 0.001798): 1002.95 ± 0.34 kg/m3
- mass density (278.15 K, x1 = 0.003591): 1005.93 ± 0.34 kg/m3
- mass density (278.15 K, x1 = 0.007135): 1011.86 ± 0.34 kg/m3
- mass density (278.15 K, x1 = 0.0107): 1017.75 ± 0.33 kg/m3
- mass density (278.15 K, x1 = 0.01422): 1023.49 ± 0.33 kg/m3
- mass density (278.15 K, x1 = 0.0177): 1029.14 ± 0.32 kg/m3
- mass density (278.15 K, x1 = 0.02206): 1035.9 ± 0.31 kg/m3
- mass density (278.15 K, x1 = 0.02629): 1042.12 ± 0.29 kg/m3
- mass density (278.15 K, x1 = 0.03056): 1048.03 ± 0.28 kg/m3
- mass density (278.15 K, x1 = 0.03484): 1053.77 ± 0.26 kg/m3
- mass density (278.15 K, x1 = 0.04311): 1063.57 ± 0.24 kg/m3
- mass density (278.15 K, x1 = 0.05132): 1072.31 ± 0.21 kg/m3
- mass density (278.15 K, x1 = 0.06089): 1080.88 ± 0.17 kg/m3
- mass density (278.15 K, x1 = 0.07486): 1090.59 ± 0.15 kg/m3
- mass density (278.15 K, x1 = 0.09142): 1099.07 ± 0.13 kg/m3
- mass density (278.15 K, x1 = 0.1085): 1105.77 ± 0.12 kg/m3
- mass density (283.15 K, x1 = 0.0009007): 1001.15 ± 0.33 kg/m3
- mass density (283.15 K, x1 = 0.001798): 1002.59 ± 0.33 kg/m3
- mass density (283.15 K, x1 = 0.003591): 1005.47 ± 0.33 kg/m3
- mass density (283.15 K, x1 = 0.007135): 1011.21 ± 0.33 kg/m3
- mass density (283.15 K, x1 = 0.0107): 1016.94 ± 0.32 kg/m3
- mass density (283.15 K, x1 = 0.01422): 1022.47 ± 0.32 kg/m3
- mass density (283.15 K, x1 = 0.0177): 1027.82 ± 0.31 kg/m3
- mass density (283.15 K, x1 = 0.02206): 1034.29 ± 0.3 kg/m3
- mass density (283.15 K, x1 = 0.02629): 1040.3 ± 0.28 kg/m3
- mass density (283.15 K, x1 = 0.03056): 1046.04 ± 0.27 kg/m3
- mass density (283.15 K, x1 = 0.03484): 1051.49 ± 0.25 kg/m3
- mass density (283.15 K, x1 = 0.04311): 1061 ± 0.23 kg/m3
- mass density (283.15 K, x1 = 0.05132): 1069.28 ± 0.2 kg/m3
- mass density (283.15 K, x1 = 0.06089): 1077.47 ± 0.17 kg/m3
- mass density (283.15 K, x1 = 0.07486): 1087.19 ± 0.14 kg/m3
- mass density (283.15 K, x1 = 0.09142): 1095.35 ± 0.12 kg/m3
- mass density (283.15 K, x1 = 0.1085): 1101.87 ± 0.12 kg/m3
- mass density (283.15 K, x1 = 0.1261): 1106.82 ± 0.12 kg/m3
- mass density (288.15 K, x1 = 0.0009007): 1000.51 ± 0.32 kg/m3
- mass density (288.15 K, x1 = 0.001798): 1001.92 ± 0.32 kg/m3
- mass density (288.15 K, x1 = 0.003591): 1004.73 ± 0.32 kg/m3
- mass density (288.15 K, x1 = 0.007135): 1010.3 ± 0.32 kg/m3
- mass density (288.15 K, x1 = 0.0107): 1015.86 ± 0.31 kg/m3
- mass density (288.15 K, x1 = 0.01422): 1021.22 ± 0.31 kg/m3
- mass density (288.15 K, x1 = 0.0177): 1026.37 ± 0.3 kg/m3
- mass density (288.15 K, x1 = 0.02206): 1032.62 ± 0.29 kg/m3
- mass density (288.15 K, x1 = 0.02629): 1038.39 ± 0.27 kg/m3
- mass density (288.15 K, x1 = 0.03056): 1043.91 ± 0.26 kg/m3
- mass density (288.15 K, x1 = 0.03484): 1049.13 ± 0.24 kg/m3
- mass density (288.15 K, x1 = 0.04311): 1058.3 ± 0.22 kg/m3
- mass density (288.15 K, x1 = 0.05132): 1066.28 ± 0.19 kg/m3
- mass density (288.15 K, x1 = 0.06089): 1074.18 ± 0.16 kg/m3
- mass density (288.15 K, x1 = 0.07486): 1083.42 ± 0.14 kg/m3
- mass density (288.15 K, x1 = 0.09142): 1091.67 ± 0.12 kg/m3
- mass density (288.15 K, x1 = 0.1085): 1098.06 ± 0.11 kg/m3
- mass density (288.15 K, x1 = 0.1261): 1102.87 ± 0.11 kg/m3
- mass density (293.15 K, x1 = 0.0009007): 999.59 ± 0.31 kg/m3
- mass density (293.15 K, x1 = 0.001798): 1000.97 ± 0.31 kg/m3
- mass density (293.15 K, x1 = 0.003591): 1003.71 ± 0.31 kg/m3
- mass density (293.15 K, x1 = 0.007135): 1009.13 ± 0.31 kg/m3
- mass density (293.15 K, x1 = 0.0107): 1014.54 ± 0.31 kg/m3
- mass density (293.15 K, x1 = 0.01422): 1019.76 ± 0.3 kg/m3
- mass density (293.15 K, x1 = 0.0177): 1024.72 ± 0.29 kg/m3
- mass density (293.15 K, x1 = 0.02206): 1030.75 ± 0.28 kg/m3
- mass density (293.15 K, x1 = 0.02629): 1036.31 ± 0.26 kg/m3
- mass density (293.15 K, x1 = 0.03056): 1041.64 ± 0.25 kg/m3
- mass density (293.15 K, x1 = 0.03484): 1046.66 ± 0.23 kg/m3
- mass density (293.15 K, x1 = 0.04311): 1055.48 ± 0.21 kg/m3
- mass density (293.15 K, x1 = 0.05132): 1063.18 ± 0.19 kg/m3
- mass density (293.15 K, x1 = 0.06089): 1070.85 ± 0.16 kg/m3
- mass density (293.15 K, x1 = 0.07486): 1079.85 ± 0.14 kg/m3
- mass density (293.15 K, x1 = 0.09142): 1087.93 ± 0.12 kg/m3
- mass density (293.15 K, x1 = 0.1085): 1094.27 ± 0.11 kg/m3
- mass density (293.15 K, x1 = 0.1261): 1098.86 ± 0.11 kg/m3
- mass density (298.15 K, x1 = 0.0009007): 998.41 ± 0.31 kg/m3
- mass density (298.15 K, x1 = 0.001798): 999.76 ± 0.31 kg/m3
- mass density (298.15 K, x1 = 0.003591): 1002.44 ± 0.3 kg/m3
- mass density (298.15 K, x1 = 0.007135): 1007.74 ± 0.3 kg/m3
- mass density (298.15 K, x1 = 0.0107): 1012.99 ± 0.3 kg/m3
- mass density (298.15 K, x1 = 0.01422): 1018.07 ± 0.29 kg/m3
- mass density (298.15 K, x1 = 0.0177): 1022.89 ± 0.28 kg/m3
- mass density (298.15 K, x1 = 0.02206): 1028.71 ± 0.27 kg/m3
- mass density (298.15 K, x1 = 0.02629): 1034.11 ± 0.26 kg/m3
- mass density (298.15 K, x1 = 0.03056): 1039.25 ± 0.24 kg/m3
- mass density (298.15 K, x1 = 0.03484): 1044.1 ± 0.22 kg/m3
- mass density (298.15 K, x1 = 0.04311): 1052.62 ± 0.21 kg/m3
- mass density (298.15 K, x1 = 0.05132): 1060.04 ± 0.18 kg/m3
- mass density (298.15 K, x1 = 0.06089): 1067.47 ± 0.16 kg/m3
- mass density (298.15 K, x1 = 0.07486): 1076.3 ± 0.14 kg/m3
- mass density (298.15 K, x1 = 0.09142): 1084.23 ± 0.12 kg/m3
- mass density (298.15 K, x1 = 0.1085): 1090.46 ± 0.11 kg/m3
- mass density (298.15 K, x1 = 0.1261): 1094.96 ± 0.11 kg/m3
- mass density (303.15 K, x1 = 0.0009007): 996.98 ± 0.3 kg/m3
- mass density (303.15 K, x1 = 0.001798): 998.31 ± 0.3 kg/m3
- mass density (303.15 K, x1 = 0.003591): 1000.94 ± 0.3 kg/m3
- mass density (303.15 K, x1 = 0.007135): 1006.12 ± 0.29 kg/m3
- mass density (303.15 K, x1 = 0.0107): 1011.24 ± 0.29 kg/m3
- mass density (303.15 K, x1 = 0.01422): 1016.18 ± 0.28 kg/m3
- mass density (303.15 K, x1 = 0.0177): 1020.85 ± 0.27 kg/m3
- mass density (303.15 K, x1 = 0.02206): 1026.51 ± 0.26 kg/m3
- mass density (303.15 K, x1 = 0.02629): 1031.75 ± 0.25 kg/m3
- mass density (303.15 K, x1 = 0.03056): 1036.7 ± 0.23 kg/m3
- mass density (303.15 K, x1 = 0.03484): 1041.43 ± 0.21 kg/m3
- mass density (303.15 K, x1 = 0.04311): 1049.65 ± 0.2 kg/m3
- mass density (303.15 K, x1 = 0.05132): 1056.85 ± 0.18 kg/m3
- mass density (303.15 K, x1 = 0.06089): 1064.12 ± 0.15 kg/m3
- mass density (303.15 K, x1 = 0.07486): 1072.68 ± 0.13 kg/m3
- mass density (303.15 K, x1 = 0.09142): 1080.53 ± 0.12 kg/m3
- mass density (303.15 K, x1 = 0.1085): 1086.64 ± 0.11 kg/m3
- mass density (303.15 K, x1 = 0.1261): 1091.13 ± 0.11 kg/m3
- mass density (308.15 K, x1 = 0.0009007): 995.34 ± 0.29 kg/m3
- mass density (308.15 K, x1 = 0.001798): 996.64 ± 0.29 kg/m3
- mass density (308.15 K, x1 = 0.003591): 999.22 ± 0.29 kg/m3
- mass density (308.15 K, x1 = 0.007135): 1004.28 ± 0.29 kg/m3
- mass density (308.15 K, x1 = 0.0107): 1009.27 ± 0.28 kg/m3
- mass density (308.15 K, x1 = 0.01422): 1014.09 ± 0.27 kg/m3
- mass density (308.15 K, x1 = 0.0177): 1018.64 ± 0.26 kg/m3
- mass density (308.15 K, x1 = 0.02206): 1024.13 ± 0.25 kg/m3
- mass density (308.15 K, x1 = 0.02629): 1029.25 ± 0.24 kg/m3
- mass density (308.15 K, x1 = 0.03056): 1034.01 ± 0.23 kg/m3
- mass density (308.15 K, x1 = 0.03484): 1038.63 ± 0.21 kg/m3
- mass density (308.15 K, x1 = 0.04311): 1046.55 ± 0.19 kg/m3
- mass density (308.15 K, x1 = 0.05132): 1053.57 ± 0.17 kg/m3
- mass density (308.15 K, x1 = 0.06089): 1060.64 ± 0.15 kg/m3
- mass density (308.15 K, x1 = 0.07486): 1069.06 ± 0.13 kg/m3
- mass density (308.15 K, x1 = 0.09142): 1076.66 ± 0.12 kg/m3
- mass density (308.15 K, x1 = 0.1085): 1082.79 ± 0.11 kg/m3
- mass density (308.15 K, x1 = 0.1261): 1087.33 ± 0.11 kg/m3

— the NIST ThermoML archive (doi:10.1016/j.jct.2010.09.009)
